Experimental data from US20260207548A1, “METHODS AND COMPOSITIONS FOR THE TREATMENT OF VASCULAR ANOMALIES” (THE CHILDREN'S MEDICAL CENTER CORPORATION, priority 2022, published 2026).

Experiments:
[1] = tested on: SREBP2; assay: SOX18 shRNA knockdown HemEC: SREBP2 Western blot and qPCR of SREBP2 target genes; format: cell-based, human; settings: HemEC with SOX18 knockdown; hydrochloride
[2] = tested on: SREBP2; assay: Western blot of SREBP2 in HemSC undergoing endothelial differentiation; format: cell-based, human; settings: 2 hours on Day 6 of differentiation
[3] = tested on: β1- and β2-adrenergic receptors; settings: cited from earlier work

Compound: CC(C)NC[C@@H](O)COc1cccc2ccccc12.Cl [R(+) propranolol, R(+) propranolol hydrochloride]
- 62 kDa to 125 kDa SREBP2 ratio [1]: constant ratio of 62 kDa to 125 kDa; also recorded: abrogates sensitivity of SREBP2
- 62 kDa/125 kDa SREBP2 ratio [2]: decreased the 62 kDa/125 kDa ratio
- β1 and β2-adrenergic receptor antagonism [3]: largely devoid of beta-blocker activity

“Also recorded” adds a separate entry of the source.
